In assay [1] the test system is Klebsiella pneumoniae (KPC, ATCC BAA-1705).
Assay [2] has the same test system. The assay can be described thus: microbe, parasite or virus in culture. Particulars: ATCCBAA1705, 24 h, read-out: MIC of antibiotic.

Structures are written as SMILES. Where only a bound is given, the exact number is not on record here.

Regarding `CCC[C@@H]1C[C@@H](C(=O)N[C@@H]([C@H]2O[C@H](SC)[C@H](O)[C@@H](O)[C@H]2O)[C@H](C)Cl)N(C)C1` [Clindamycin], in assay [1], the MIC of antibiotic was more than 256 µg/mL and the MIC of antibiotics is more than 256 µg/mL. Besides, the MIC in assay [2] is more than 256 µg/mL.

(Values after patent US20220289794A1, “SYNTHETIC ANTIMICROBIAL PEPTIDES” (priority 2019, published 2022).)
